The subject of series [1] is MV-4-11 (FLT3-ITD+) cells. In words: Western blot of FLT3/PIM downstream signaling. The format is cell-based. The note with it: MV-4-11, 4 hours. The protocol:
(§1) Thereafter, we assessed the activities of FLT3-ITD – induced key pro-survival signaling pathways; STAT5, RAF/MEK/ERK and PI3K/AKT (Figure 3). […] Since the expression of a major anti-apoptotic BCL2 family member, MCL1, is regulated by translation, and PIM kinases regulate protein synthesis through 4EBP1, we also assessed the abundance of MCL1.
(§2) Cells were collected, washed twice with cold PBS, and lysed in RIPA buffer and kept on ice for 10 min. Tumor specimens from xenograft studies were homogenized in RIPA buffer using OMNI TH Tissue Homogenizer and kept on ice for 30 min. After incubation, cell and tumor lysates were centrifuged at 13,000×g at 4°C for 10 min and the supernatants were stored at −80°C until use. Protein concentration was measured using the Bradford method. For SDS-PAGE, 50 μg of protein in the Laemmli sample buffer was loaded onto 10% polyacrylamide gels and electrophoresed. Thereafter, proteins were transferred onto polyvinylidene fluoride (PVDF) membranes (Millipore). After blocking with 5% non-fat dry milk/TBS-T or 2% BSA/TBS-T, membranes were incubated with specific primary antibodies (listed in Supplementary Table 2) at 4 °C overnight. After extensive washing in PBS-T, membranes were incubated for 60 min with appropriate secondary peroxidase-conjugated IgG. The immunoreactive proteins were detected using an enhanced chemiluminescence (ECL) substrate (GE Healthcare) and visualized with Hyperfilm-ECL (GE Healthcare Biosciences).
In general terms: A western blot detects proteins with antibodies after separation by electrophoresis.

In another series the test system is MOLM-16 (FLT3-WT) cells. In words: Western blot of FLT3/PIM downstream signaling. As to conditions: MOLM-16, 4 hours. The class given is cell-based. The protocol: as §1, §2
Series [2] is described as follows: Blood biochemistry in mice with MV-4-11 tumors. The format is in vivo. As to conditions: treatment day 15. An excerpt:
All animals were handled in strict accordance with good animal practice as defined by the relevant national and local animal welfare bodies. SCID and SCID/beige C.B-17 mice were provided by Harlan Laboratories or Charles River Laboratories, and were maintained in pathogen free conditions. For the xenograft experiments, age-matched (9-11 weeks old) females were used. 5×10^6 of MV-4-11 or MOLM-16 cells were suspended in a mixture (1:1, v:v) of PBS with Matrigel (BD Biosciences,) and injected subcutaneously (sc), in a total volume of 100 μL, above the groin on the right hind limb. For MOLM-13 and KG-1 cells, a mixture (3:1, v:v) of PBS and Matrigel HC (BD Bioscience,) was used to inject 5 × 10^6 of cell per mouse subcutaneously (sc), in a total volume of 100 μL. When tumors reached 100-130 mm^3, mice were randomized into uniform groups (6-9 mice per group) and subsequently administered the compound. […] At the end of the experiment, mice were anesthetized with isofluran and blood samples for total cell counts and biochemistry were obtained by retro-orbital bleeding. […] 5×10^6 cells suspended in a mixture (3:1, v:v) of PBS and Matrigel were injected as described above. When the tumor volume reached ~120 mm^3, mice were randomized into uniform groups (5 mice per group) and the compound then administered. […] Tumor volume was monitored every second day and calculated using the formula: TV = (a^2×b)/2, where “a” is the short axis in millimeters, and “b” is the long axis in millimeters. Body weight was assessed every day.
Supplementary Table 9: Related to Figure 5C. […] The assessment of
was performed on treatment day 15.
AST – Aspartate aminotransferase, ALT – Alanine transaminase, ALP – alkaline phosphatase, UREA – blood urea nitrogen,
CREA – Creatinine, CK – Creatine kinase, TP- total protein; ALB – Albumin. […]

Experimental findings from publication PMC5908295 (Oncotarget, 2018) are described below.

On to `CC(C)(C)c1cc(NC(=O)Nc2ccc(-c3cn4c(n3)sc3cc(OCCN5CCOCC5)ccc34)cc2)no1` [AC220], for which, in series [1], the MCL1 abundance entry is listed as “to a lesser extent” and the STAT5 signaling entry is given as “completely blocked”. In the series with MOLM-16 (FLT3-WT) cells, the “S6 (S235/236) phosphorylation” value was “did not alter”.
Compound `Nc1ccn([C@@H]2O[C@H](CO)[C@@H](O)[C@@H]2O)c(=O)n1` [Cytarabine] had a Na in series [2] (Cytarabine 50 mg/kg) of 138.4 nmol/L.
On to `CC(C)n1c(C2CCNCC2)nc2c([N+](=O)[O-])c(Br)c(Br)cc21` [SEL24-B489, 5,6-dibromo-4-nitro-2-(piperidin-4-yl)-1-(propan-2-yl)-1H-1,3-benzodiazole], for which, in series [2] (SEL24-B489 25 mg/kg), the ALT is given as 70.5 U/L and the Na was 138.2 nmol/L.
